Measured values reported in patent US20230295130A1, “COMPOUND USEFUL AS CDK7 KINASE INHIBITOR AND USE THEREOF” (TYK MEDICINES, INC., priority 2020, published 2023).

Chains of the proteins cited; added tags and fusions are not shown. Residues count along the entry.
UniProt P50613, whole entry: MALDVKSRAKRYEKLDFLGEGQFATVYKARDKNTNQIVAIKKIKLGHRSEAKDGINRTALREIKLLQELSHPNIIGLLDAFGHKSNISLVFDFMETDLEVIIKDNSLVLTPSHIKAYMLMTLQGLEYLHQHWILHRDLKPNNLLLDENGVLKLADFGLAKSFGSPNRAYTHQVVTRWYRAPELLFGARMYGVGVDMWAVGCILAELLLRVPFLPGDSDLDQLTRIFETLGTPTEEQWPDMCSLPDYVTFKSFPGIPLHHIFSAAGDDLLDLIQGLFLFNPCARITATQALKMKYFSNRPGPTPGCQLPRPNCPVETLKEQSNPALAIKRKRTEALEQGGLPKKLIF
UniProt P50750, whole entry: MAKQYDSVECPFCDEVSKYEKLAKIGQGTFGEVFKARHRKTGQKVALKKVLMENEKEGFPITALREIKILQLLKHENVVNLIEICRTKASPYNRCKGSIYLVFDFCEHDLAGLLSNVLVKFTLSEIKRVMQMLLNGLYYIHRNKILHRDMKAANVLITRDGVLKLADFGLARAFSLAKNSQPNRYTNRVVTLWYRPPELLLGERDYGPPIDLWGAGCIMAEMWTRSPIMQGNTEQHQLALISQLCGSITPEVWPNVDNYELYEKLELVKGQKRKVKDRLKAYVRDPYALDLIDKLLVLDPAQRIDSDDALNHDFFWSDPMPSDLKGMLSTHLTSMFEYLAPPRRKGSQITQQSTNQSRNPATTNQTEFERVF
UniProt Q9NYV4, 686-1082 limits assumed: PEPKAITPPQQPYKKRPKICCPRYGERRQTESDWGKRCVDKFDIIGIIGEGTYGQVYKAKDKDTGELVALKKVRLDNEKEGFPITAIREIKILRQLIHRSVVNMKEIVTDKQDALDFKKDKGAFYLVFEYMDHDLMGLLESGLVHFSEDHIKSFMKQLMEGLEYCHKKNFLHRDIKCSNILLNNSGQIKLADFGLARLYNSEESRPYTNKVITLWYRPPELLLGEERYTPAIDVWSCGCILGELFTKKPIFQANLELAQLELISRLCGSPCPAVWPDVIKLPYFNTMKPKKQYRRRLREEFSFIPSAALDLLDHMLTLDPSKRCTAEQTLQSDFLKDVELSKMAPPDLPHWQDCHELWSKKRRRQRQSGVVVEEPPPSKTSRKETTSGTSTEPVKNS
UniProt P51946, whole entry partner: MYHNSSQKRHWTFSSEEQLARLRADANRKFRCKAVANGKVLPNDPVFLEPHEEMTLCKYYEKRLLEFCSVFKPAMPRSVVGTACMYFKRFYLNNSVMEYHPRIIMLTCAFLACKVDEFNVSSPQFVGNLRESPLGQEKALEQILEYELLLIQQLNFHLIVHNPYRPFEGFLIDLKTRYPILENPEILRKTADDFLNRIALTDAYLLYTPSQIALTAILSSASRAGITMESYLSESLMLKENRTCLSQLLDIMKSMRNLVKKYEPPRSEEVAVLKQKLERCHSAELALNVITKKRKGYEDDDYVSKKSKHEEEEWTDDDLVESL
UniProt P51948, whole entry partner: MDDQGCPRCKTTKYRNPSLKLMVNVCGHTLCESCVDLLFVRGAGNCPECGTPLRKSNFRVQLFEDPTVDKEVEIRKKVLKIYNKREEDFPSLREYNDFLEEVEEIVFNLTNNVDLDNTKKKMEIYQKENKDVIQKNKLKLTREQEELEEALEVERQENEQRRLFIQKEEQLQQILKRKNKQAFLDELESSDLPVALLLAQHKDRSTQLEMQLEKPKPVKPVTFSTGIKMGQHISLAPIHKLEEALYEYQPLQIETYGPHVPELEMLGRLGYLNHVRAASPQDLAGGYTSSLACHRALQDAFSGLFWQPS
UniProt O60563, whole entry partner: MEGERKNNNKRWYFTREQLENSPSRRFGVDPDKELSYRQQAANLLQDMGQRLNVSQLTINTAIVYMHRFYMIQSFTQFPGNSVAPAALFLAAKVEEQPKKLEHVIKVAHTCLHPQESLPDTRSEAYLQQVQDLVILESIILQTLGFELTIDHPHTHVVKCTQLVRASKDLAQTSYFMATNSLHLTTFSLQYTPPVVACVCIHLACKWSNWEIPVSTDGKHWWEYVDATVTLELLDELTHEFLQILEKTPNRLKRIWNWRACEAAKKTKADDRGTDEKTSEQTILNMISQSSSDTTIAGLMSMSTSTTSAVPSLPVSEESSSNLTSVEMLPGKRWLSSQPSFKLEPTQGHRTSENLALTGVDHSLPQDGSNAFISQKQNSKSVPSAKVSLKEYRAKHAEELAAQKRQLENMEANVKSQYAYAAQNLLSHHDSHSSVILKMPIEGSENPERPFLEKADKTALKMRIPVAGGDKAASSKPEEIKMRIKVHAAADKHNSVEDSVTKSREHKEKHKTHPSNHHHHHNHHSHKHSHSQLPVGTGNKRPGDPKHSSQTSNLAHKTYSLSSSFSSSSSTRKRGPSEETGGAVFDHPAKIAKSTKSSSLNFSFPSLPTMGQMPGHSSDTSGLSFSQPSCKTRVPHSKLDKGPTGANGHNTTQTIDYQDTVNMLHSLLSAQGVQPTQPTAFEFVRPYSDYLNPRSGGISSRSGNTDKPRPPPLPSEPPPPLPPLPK
UniProt O75909, whole entry partner: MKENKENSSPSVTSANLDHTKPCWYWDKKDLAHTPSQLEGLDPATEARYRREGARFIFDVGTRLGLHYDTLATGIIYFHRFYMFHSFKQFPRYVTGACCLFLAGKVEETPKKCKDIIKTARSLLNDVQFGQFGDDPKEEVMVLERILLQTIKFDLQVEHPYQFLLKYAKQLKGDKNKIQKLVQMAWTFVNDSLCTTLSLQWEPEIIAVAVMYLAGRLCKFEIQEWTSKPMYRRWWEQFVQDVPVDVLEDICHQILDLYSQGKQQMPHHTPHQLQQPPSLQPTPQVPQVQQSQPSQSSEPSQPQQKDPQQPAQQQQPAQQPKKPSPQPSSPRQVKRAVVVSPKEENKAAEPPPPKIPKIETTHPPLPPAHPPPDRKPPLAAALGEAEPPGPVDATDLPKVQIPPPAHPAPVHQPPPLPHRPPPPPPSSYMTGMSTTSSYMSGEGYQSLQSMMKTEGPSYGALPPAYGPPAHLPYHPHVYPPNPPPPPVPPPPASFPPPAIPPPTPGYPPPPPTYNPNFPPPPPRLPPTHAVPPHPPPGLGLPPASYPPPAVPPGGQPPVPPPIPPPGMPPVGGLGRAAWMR

Legend:
Test in all cases: Enzyme activity test, mobility shift assay (Table 1)
[1] = molecular target: CDK7/Cyclin H/MAT1 kinase (Homo sapiens (Human), UniProt P50613); assay type: biochemical; conditions: read-out: CDK7 kinase IC50; 2 mM ATP; pre-incubated 0 and 60 minutes
[2] = molecular target: CDK9/Cyclin Tl (Homo sapiens (Human), UniProt P50750); assay type: biochemical; conditions: read-out: CDK9 kinase IC50; 2 mM ATP
[3] = molecular target: CDK12 (aa686-1082)/Cyclin K (Homo sapiens (Human), UniProt Q9NYV4); conditions: read-out: CDK12 kinase IC50; 2 mM ATP
[4] = molecular target: CDK2/Cyclin El (Homo sapiens (Human), UniProt P24941); conditions: read-out: CDK2 kinase IC50; 2 mM ATP

SMILES | IC50 [1] | IC50 [2] | IC50 [3] | IC50 [4]
COC(=O)Nc1ccc2c(-c3nc(N[C@@H]4CCCNC4)ncc3C(F)(F)F)c[nH]c2c1Br | > 0.5 µM | – | – | –
COC(=O)Nc1ccc2c(-c3nc(Nc4ccc(C)nc4)ncc3C(F)(F)F)c[nH]c2c1Br | > 0.5 µM | – | – | –
COC(=O)Nc1ccc2c(-c3nc(N[C@H]4CCC5(CC5)NC4)ncc3C(F)(F)F)c[nH]c2c1OC(F)(F)F | < 0.05 µM | – | – | –
COC(=O)Nc1ccc2c(-c3nc(N[C@H]4CCCN(C)C4)ncc3C(F)(F)F)c[nH]c2c1Br | < 0.05 µM | > 0.5 µM | > 0.5 µM | > 0.5 µM
